Results published in patent US20250206721A1, “Prostaglandin Receptor EP2 Antagonists, Derivatives, and Uses Related Thereto” (Emory University, priority 2019, published 2025).

Chains of the proteins cited; added tags and fusions are not shown. Lines headed by an entry give the natural chain unless they say otherwise; changes in a name come on top.
UniProt P43116: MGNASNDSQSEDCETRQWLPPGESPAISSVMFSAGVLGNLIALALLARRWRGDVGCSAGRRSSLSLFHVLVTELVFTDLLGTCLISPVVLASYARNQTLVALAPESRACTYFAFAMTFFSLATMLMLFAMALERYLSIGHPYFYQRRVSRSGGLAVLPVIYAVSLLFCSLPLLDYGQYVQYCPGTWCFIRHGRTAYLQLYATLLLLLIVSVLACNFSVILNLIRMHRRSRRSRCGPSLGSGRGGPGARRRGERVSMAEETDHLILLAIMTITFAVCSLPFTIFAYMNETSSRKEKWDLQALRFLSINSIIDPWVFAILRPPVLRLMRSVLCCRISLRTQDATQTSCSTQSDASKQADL

Legend:
[1] = mouse, microsomes
human EP2 receptor = target: T1, human EP2 receptor (Homo sapiens, UniProt P43116); assay: Cell-based cAMP TR-FRET assay, Schild KB on EP2
T1 construct: expressed in transfected cells

[2] = pH 7.4

Substance: (E)-N-(2-(2-(trifluoromethyl)-1H-indol-1-yl)ethyl)-3-(3,4,5-trimethoxyphenyl)acrylamide [Compound 2a]
- MLM T½ [1]: metabolized quickly
- Kb (human EP2 receptor): 28.6 nM
- Aqueous Solubility [2]: 70 µM
